## Apparent affinities of Ab-14 variants for a coronavirus HR2 peptide

Values reported by Li et al. 2023, doi:10.1038/s41467-023-39022-2 (FLAb copy).

Antigen: PDVDLGDISGINAS, a 14-residue peptide of the SARS-CoV-2 spike HR2 region.

Parent: Ab-14, a human scFv built as VH, a (GGGGS)3 linker, VL. Only the CDRs of the light chain vary.
VH: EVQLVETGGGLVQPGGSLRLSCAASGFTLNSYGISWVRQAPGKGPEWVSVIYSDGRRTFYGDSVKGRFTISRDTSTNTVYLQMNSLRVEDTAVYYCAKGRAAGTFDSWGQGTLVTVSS
VL: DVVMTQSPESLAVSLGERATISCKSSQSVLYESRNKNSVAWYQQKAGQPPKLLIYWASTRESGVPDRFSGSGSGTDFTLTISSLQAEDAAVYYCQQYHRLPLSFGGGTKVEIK

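Phage display of a naive human antibody library on the peptide gave the parent. Designed CDR sequences, proposed from the first random library and measured here. Their group label is 14L_GP_Gen (GP: Gaussian process model; Gen: genetic algorithm; a sequence that several methods proposed may carry one label only). The assay is AlphaSeq: two haploid yeast populations carry antibody and antigen on their surface. After mating in shaken culture at 30 °C for 16 h, diploids were selected and their barcode pairs sequenced. Each replicate has its own calibration line, from reference interactions of the BCL2 family. The assay was run in six technical replicates.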

Changes read parent residue, position, new residue, counted from the first residue of the VL shown. The read-out is the apparent dissociation constant on a log10 scale (nM): the lower, the stronger. Nonspecific signal, from three strains lacking the peptide, appeared in 4% of pairings of all light chain designs, centred on 2.64 (5% of these signals below 1.59); values are not corrected for it. For each scFv, signals with the empty controls are counted beside the result, with their mean in brackets. Of ten entries with the parent sequence, four were seen in most replicates (averages 0.34 to 2.37), three in one and three in none, so single entries are noisy. A sequence measured in both rounds can read differently, since the two assays cover different ranges. The authors' rule: three or more of the six replicates give a measured affinity, fewer mean a poor binder.

| # | changes | replicates, log10 nM | empty controls |
|---|---|---|---|
| 1 | S25L W56Q S62V | -0.02 / -0.01 / -0.19 / -0.29 / -0.18 / -0.07 | 1 of 18 (1.73) |
| 2 | S25L S26P S38A W56N T59Q | -0.47 / -0.47 / -0.43 / -0.45 / -0.66 / -0.29 | 0 of 18 |
| 3 | S25L S26Q V29Q W56E | 0.35 / 0.12 / -0.03 / -0.02 / 0.02 / 0.17 | 0 of 18 |
| 4 | S25V V29W W56N S103M | -0.34 / -0.34 / -0.14 / -0.45 / -0.60 / -0.48 | 2 of 18 (2.92) |
| 5 | S25L S26P W56S E61M | -0.28 / -0.29 / -0.47 / -0.45 / -0.49 / -0.36 | 1 of 18 (2.26) |
| 6 | S25L V29G W56N T59Y | 0.82 / 0.56 / 0.27 / 0.49 / 0.60 / 0.79 | 0 of 18 |
| 7 | S25L S33D W56S E61S | -0.02 / -0.18 / -0.28 / -0.47 / -0.33 / -0.07 | 1 of 18 (2.05) |
| 8 | S25L S26A W56D | 0.12 / -0.27 / 0.04 / -0.38 / -0.33 / 0.42 | 0 of 18 |
| 9 | S25L S26P V29D W56H T59Q | 0.92 / 0.53 / 0.40 / 0.80 / 0.58 / 0.75 | 4 of 18 (3.43) |
| 10 | S25L V29E W56N E61M S62K | 0.50 / 0.33 / 0.20 / 0.23 / 0.29 / 0.42 | 5 of 18 (4.35) |
| 11 | S25L S26Q W56N E61L S62W | 0.15 / -0.03 / -0.17 / 0.03 / -0.15 / 0.19 | 0 of 18 |
| 12 | S25F S26Q V29Q W56N | 0.06 / 0.03 / -0.19 / -0.16 / -0.17 / 0.03 | 0 of 18 |
| 13 | S25L S26Q V29F W56N | -0.13 / -0.06 / -0.40 / -0.37 / -0.27 / -0.22 | 0 of 18 |
| 14 | S25L S26Y V29T W56N | 0.48 / 0.19 / -0.09 / -0.10 / 0.06 / 0.04 | 1 of 18 (2.21) |
| 15 | S25L S26D V29D W56E | -0.09 / -0.17 / -0.11 / -0.26 / -0.14 / -0.05 | 2 of 18 (2.82) |
| 16 | S25L S38N W56A | -0.59 / -0.21 / -0.68 / -0.69 / -0.62 / -0.41 | 1 of 18 (2.19) |
| 17 | S25L W56E T59Q S62E | 0.07 / -0.09 / -0.12 / -0.30 / -0.30 / 0.00 | 0 of 18 |
| 18 | S25L S26K V29Q W56N | 0.30 / 0.30 / 0.23 / 0.15 / 0.37 / 0.44 | 4 of 18 (2.70) |
| 19 | S25L Q27M V29E W56N T59Q | 0.51 / 0.02 / 0.00 / -0.29 / -0.14 / -0.02 | 0 of 18 |
| 20 | S25L S26Y V29Y W56N | -0.04 / -0.30 / -0.36 / -0.28 / -0.40 / -0.14 | 4 of 18 (2.99) |
| 21 | S25L W56N E61C S62W | 0.02 / -0.25 / -0.08 / -0.29 / -0.14 / 0.17 | 1 of 18 (3.49) |
| 22 | S25L V29H S38N W56Q | -0.27 / -0.29 / -0.43 / -0.63 / -0.51 / -0.41 | 1 of 18 (3.43) |
| 23 | S25L S26Q V29E W56D T59Q | 0.10 / -0.11 / -0.24 / -0.50 / -0.48 / -0.13 | 1 of 18 (2.80) |
| 24 | S25L Q27W S38N W56G | 0.04 / -0.27 / -0.03 / -0.28 / -0.26 / -0.03 | 0 of 18 |
| 25 | S25L S26Q N35M W56E | 0.20 / 0.01 / -0.12 / -0.20 / -0.13 / 0.07 | 0 of 18 |
| 26 | S25V V29Y W56N S62Q | 0.13 / -0.25 / -0.25 / -0.47 / -0.30 / -0.16 | 0 of 18 |
| 27 | S25L S26P V29S W56N E61L | -0.11 / -0.41 / -0.21 / -0.29 / -0.24 / -0.14 | 0 of 18 |
| 28 | S25L V29Q W56N | -0.18 / -0.17 / -0.20 / -0.29 / -0.36 / -0.05 | 3 of 18 (2.48) |
| 29 | S25L S26P V29Q S38A W56N T59Q | -0.39 / -0.28 / -0.52 / -0.30 / -0.55 / -0.19 | 1 of 18 (2.48) |
| 30 | S25M V29W W56N A57G T59Q | -0.18 / -0.10 / -0.35 / -0.59 / -0.27 / -0.27 | 0 of 18 |
| 31 | S25L S26Q V29E L30E W56S | 0.13 / -0.02 / -0.15 / -0.18 / -0.09 / 0.05 | 0 of 18 |
| 32 | S25L K36S S38N W56G | 0.17 / 0.10 / 0.35 / -0.24 / -0.26 / -0.07 | 1 of 18 (1.74) |
| 33 | S25L N37F W56N | 0.18 / -0.14 / -0.13 / -0.20 / -0.12 / 0.08 | 3 of 18 (2.99) |
| 34 | S25M S38N W56N | -0.15 / -0.16 / -0.35 / -0.49 / -0.48 / -0.28 | 2 of 18 (2.08) |
| 35 | S25L S26E V29D W56H | -0.29 / -0.54 / -0.47 / -0.41 / -0.37 / -0.21 | 1 of 18 (2.30) |
| 36 | S25V L30E W56E | 0.08 / -0.30 / -0.27 / -0.21 / -0.36 / 0.02 | 0 of 18 |
| 37 | L30P W56N S62Q | 0.38 / 0.20 / 0.01 / -0.01 / -0.06 / 0.21 | 0 of 18 |

Picked from the list: the 5 lowest averages where every replicate gave a value.

changes,"replicates, log10 nM",empty controls
S25L S38N W56A,-0.59 / -0.21 / -0.68 / -0.69 / -0.62 / -0.41,1 of 18 (2.19)
S25L S26P S38A W56N T59Q,-0.47 / -0.47 / -0.43 / -0.45 / -0.66 / -0.29,0 of 18
S25L V29H S38N W56Q,-0.27 / -0.29 / -0.43 / -0.63 / -0.51 / -0.41,1 of 18 (3.43)
S25V V29W W56N S103M,-0.34 / -0.34 / -0.14 / -0.45 / -0.60 / -0.48,2 of 18 (2.92)
S25L S26P W56S E61M,-0.28 / -0.29 / -0.47 / -0.45 / -0.49 / -0.36,1 of 18 (2.26)